Data: patent US8859723 (AILERON THERAPEUTICS, dated 2014)

Sequences of proteins named here, by UniProt entry; tags and fusion partners are left off. Residues count along the entry.
UniProt Q00987, 1-125 limits assumed: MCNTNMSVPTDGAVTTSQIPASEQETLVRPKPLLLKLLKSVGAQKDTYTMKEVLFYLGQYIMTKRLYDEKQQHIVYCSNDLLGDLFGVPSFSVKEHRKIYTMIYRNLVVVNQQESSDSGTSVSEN

Legend:
hDMX (In-house, 40 kD) = molecular target: T1, hDMX (In-house, 40 kD) (human, UniProt O15151 1-120, limits assumed); assay: fluorescence polarization, direct binding; hDMX titrated against 10 nM FAM labeled peptide
T1 construct: Only 'In-house, 40 kD' is said of the protein in the assay; also called HDM4
T1 sequence (looked up): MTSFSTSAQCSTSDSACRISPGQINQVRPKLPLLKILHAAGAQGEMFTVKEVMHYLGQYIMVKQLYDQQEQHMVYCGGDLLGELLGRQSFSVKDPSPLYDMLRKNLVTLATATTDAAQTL
Method: (§1) The assay was performed according to the following general protocol: 1. Dilute hDMX (In-house, 40 kD) into FP buffer (High salt buffer-200 mM Nacl, 5 mM CHAPS, pH 7.5) to make 10 µM working stock solution. 2. Add 30 µl of 10 µM of protein stock solution into A1 and B1 well of 96-well black HE microplate (Molecular Devices). 3. Fill in 30 µl of FP buffer into column A2 to A12, B2 to B12, C1 to C12, and D1 to D12. 4. 2 or 3 fold series dilution of protein stock from A1, B1 into A2, B2; A2, B2 to A3, B3; ... to reach the single digit nM concentration at the last dilution point. 5. Dilute 1 mM (in 100% DMSO) of FAM labeled linear peptide with DMSO to 100 µM (dilution 1:10). Then, dilute from 100 µM to 10 µM with water (dilution 1:10) and then dilute with FP buffer from 10 µM to 40 nM (dilution 1:250). This is the working solution which will be a 10 nM concentration in well (dilution 1:4). Keep the diluted FAM labeled peptide in the dark until use. 6. Add 10 µl of 10 nM of FAM labeled peptide into each well and incubate, and read at different time points.

hDM2 (In-house, 41 kD) = molecular target: T2, hDM2 (In-house, 41 kD) (human, UniProt Q00987 1-125, limits assumed); assay: fluorescence polarization, direct binding; hDM2 titrated against 10 nM FAM labeled peptide
T2 construct: Only 'In-house, 41 kD' is said of the protein in the assay; also called hMDM2
Method: as §1, with “Dilute hDM2” for “Dilute hDMX”, “(In-house, 41” for “(In-house, 40”, “until use” for “until use.”

Kd (hDMX (In-house, 40 kD)): ~51 nM
Kd (hDM2 (In-house, 41 kD)): ~13.4 nM
B1: 5-FAM-BaLTFEHYWAQLTS-NH2 (SEQ ID NO: 795) (peptide)
peptide: ALTFEHYWAQLTS
modifications: N-terminal 5-FAM label; 'Ba' residue after the label (abbreviation not defined in the filing); C-terminal amide (-NH2)
notes: Synthetic fluorescent tracer peptide; also called FAM labeled linear peptide; FAM labeled peptide
